Laboratory results: patent US11401278B2, “Macrocyclic indole derivatives” (The Broad Institute, Inc., priority 2017, dated 2022)

Protein sequences, listed by entry. Tags and fused reporters are not part of them. Chains listed by the source or under a name are the forms on record and can include a tag or linker. Residues count along the entry.
UniProt Q07817, 1-212 with tags or gaps limits assumed: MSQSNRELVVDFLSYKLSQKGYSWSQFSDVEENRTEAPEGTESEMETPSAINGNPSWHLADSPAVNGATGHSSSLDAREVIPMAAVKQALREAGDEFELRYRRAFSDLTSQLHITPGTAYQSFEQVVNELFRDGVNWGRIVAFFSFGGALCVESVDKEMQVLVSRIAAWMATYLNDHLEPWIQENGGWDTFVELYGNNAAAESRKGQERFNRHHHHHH

Key:
BCL-XL = BCL-XL (Homo sapiens (Human), UniProt Q07817); assay: Protein-protein interaction assay BCL-XL/Bad BH3 peptide (BCL-XL assay, TR-FRET); type: binding; conditions: read-out: BCL-XL Assay [M] (median) IC50, His-BCL-XL / Bad BH3 peptide
Description: Assay 2 Protein-Protein Interaction Assay: BCL-XL/Bad BH3 Peptide (BCL-XL Assay)
The dose-dependent inhibition by the compounds described in this invention of the interaction between BCL-XL and the BH3 domain of Bad (both human) was determined using a steady state binding competition assay with time-resolved fluorescence energy transfer (TR-FRET) readout. […]
In the assay 11 different concentrations of each compound (0.1 nM, 0.33 nM, 1.1 nM, 3.8 nM, 13 nM, 44 nM, 0.15 μM, 0.51 μM, 1.7 μM, 5.9 μM and 20 μM) were typically measured as duplicates in the same microtiter plate. […]
The mixture was incubated in the dark for one hour at 22° C. and then overnight at 4° C. The formation of BCL-XL/Bad complexes was determined by measuring the resonance energy transfer of the anti-His- Eu-cryptate antibody to the streptavidin-XL665 present in the reaction. For that purpose, the fluorescence emission at 620 nm and 665 nm after excitation at 330-350 nm was measured in a TR-FRET measuring instrument, for instance a Rubystar or a Pherastar (both from BMG Lab Technologies, Offenburg, Germany) or a Viewlux (Perkin-Elmer). […]

SUDHL10 [1] = system: SUDHL10
SUDHL10 [2] = assay: Induction of caspase-3/7 activity (Assay 4), SUDHL10; conditions: read-out: Caspase SUDHL10 [M] (median) EC50, caspase-3/7 induction, 3 hours
Description: Cellular Assays Assay 4 Induction of Caspase-3/7 Activity Upon Treatment of Cells with Selected Compounds
The BH3-domain of MCL-1 sequesters pro-apoptotic proteins, thereby inhibiting apoptosis. In contrast, MCL-1 inhibitors are expected to antagonize this effect leading to an increase in apoptosis, which can be determined by measuring the activity of caspase-3/7.
The activity of caspase-3/7 was determined in DLBCL (Diffuse large B-cell lymphoma) cell lines (SUDHL5 and SUDHL10) upon treatment with different compounds, using the Caspase-Glo® 3/7 reagent from Promega (G8092).
The different cell lines were plated in culture medium (RPMI 1640 [GIBCO #22400-089] supplemented with 10% Fetal Bovine Serum) at a density of 3,300 cells in 30 μl/well in a sterile, solid black, flat bottom, polystyrene, TC-treated 384-well microplate (Corning #3571) using Multidrop Combi Reagent Dispenser. […]
On the next day, the cells were treated with compounds (stock solution, 10 mM in DMSO) using the HP D300 Digital Dispenser in a concentration range of 3.3×10e-5 M (33 μM) to 5×10e-9 M (5 nM) in a single-dot curve with at least 16 dilutions and a DMSO concentration of 0.33%. […] Finally, luminescence was read at 0.1 ms, with a gain of 3000 using the PHERAstar FS microplate reader (BMG Labtech).
For the evaluation of the results, the background measured with “medium-only” was subtracted from all other values. […]

IC50 (BCL-XL): > 2e-05 M | IC50 (SUDHL10 [1]): 2900 nM | EC50 (SUDHL10 [2]): 1.7e-06 M
Structure (SMILES): CCc1c2c(nn1C)CNS(=O)(=O)CCCn1c(C(=O)O)c(CCCOc3cccc4cc(F)ccc34)c3ccc(Cl)c-2c31
